For four compounds, Kd and AC50 results are on record in patent publication US20260374766A1, “METHODS FOR TREATING CANCER” (Antares Therapeutics, Inc., priority 2022, published 2026).

The chains behind the UniProt entries cited, without tags or fusion partners. Where a name states a change or a piece, a line headed by the entry shows the natural chain unless it says otherwise.
UniProt P04637: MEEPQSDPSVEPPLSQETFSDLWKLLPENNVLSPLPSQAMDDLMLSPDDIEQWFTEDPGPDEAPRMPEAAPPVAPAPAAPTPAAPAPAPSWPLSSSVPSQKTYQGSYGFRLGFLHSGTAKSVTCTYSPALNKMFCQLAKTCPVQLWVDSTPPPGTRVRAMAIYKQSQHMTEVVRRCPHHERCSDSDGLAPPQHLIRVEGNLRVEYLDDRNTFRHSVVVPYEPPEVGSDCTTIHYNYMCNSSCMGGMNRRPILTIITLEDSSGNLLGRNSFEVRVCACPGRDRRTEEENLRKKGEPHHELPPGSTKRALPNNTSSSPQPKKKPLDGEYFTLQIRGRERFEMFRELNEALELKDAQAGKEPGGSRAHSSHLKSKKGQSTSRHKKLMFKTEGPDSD

The target of experiment [1] is T1, p53 Y220C mutant protein (amino acid residues 94-293) (Homo sapiens, UniProt P04637, Y220C).
T1 construct: p53 Y220C mutant protein (amino acid residues 94-293)
The experiment in a line: Surface Plasmon Resonance (SPR) assay, Kd_kinetic. Type of experiment: binding. As to conditions: read-out: SPR P53 Y220C KD kinetic. The method, then: Surface Plasmon Resonance (SPR) Assay Protocol
SPR experiments were performed on a Biacore 8K instrument. […] The running buffer contained 50 mM Tris, pH 7.5, 100 mM NaCl, 1 mM DTT, 0.01% Brij35, 0.05% Tween-20 and 1% DMSO. The assay temperature was maintained at 16 or 20 °C and data were fit into the 1:1 binding model using the Biacore Insight Evaluation software.

Another experiment addresses p53 Y220C (Homo sapiens, UniProt P04637, Y220C). The experiment in a line: Luciferase Reporter Assay (Luc), p53 response element, NClH1299 cells with inducible p53 Y220C. The format is cell-based. Conditions: 6 hour. The method, then:
Luciferase Reporter Assay Protocol
Luciferase reporter (Luc) driven by p53 response element (LTV-p53-Luc (SKU #: LTLR007); G&P Biosciences) and inducible p53 Y220C construct (Tet-One inducible expression system; Takara) were stably expressed in NClH1299 cells by lentiviral transduction. The cells were then used for p53 reporter assay. 5,000 cells were seeded in each well of 384 plate and cultured in 0.5 ug/mL doxycycline (D3072; Sigma) containing medium for 24 hours before compound treatment. After 6 hour of compound treatment, equal volume of One-Glo reagent (E6110; Promega) was added to each well and the plate was incubated for 5 minutes with shaking at room temperature. The luciferase activity was immediately measured with PheraStar microplate reader. Luciferase activity was stimulated by 10 uM of a tool compound as positive control and AC50 was calculated.

The structures appear in SMILES notation.

Turning to `CNC(=O)c1ccc(NCC#Cc2nc3c(N[C@@H]4C[C@H]5COC[C@H](N5)[C@@H]4F)cccn3c2SC(F)(F)F)c(OC)c1` (relative stereo) [Example 251, rel-4-{[3-(8-{[(1R,5R,6S,7S)-6-fluoro-3-oxa-9-azabicyclo [3.3.1]nonan-7-yl]amino}-3-[(trifluoromethyl)sulfanyl]imidazo[1,2-a]pyridin-2-yl)prop-2-yn-1-yl]amino}-3-methoxy-N-methylbenzamide], the Kd (in general, the equilibrium constant for the complex coming apart) in experiment [1] lay within 0.01 to 0.1 µM. The AC50 – broadly, the midpoint of the concentration-response curve, whichever way the signal moves – on p53 Y220C fell in the range of 1.5 to 3 µM.

On p53 Y220C, `CNC(=O)c1ccc(NCC#Cc2nc3c(N[C@@H]4C[C@@H]5COC[C@@H](N5)[C@@H]4F)cccn3c2SC(F)(F)F)c(OC)c1` (relative stereo) [Example 329] returned an AC50 of under 0.75 µM.

For the compound `CNC(=O)c1ccc(NCC#Cc2nc3c(N[C@H]4C[C@@H]5COC[C@@H](N5)[C@H]4F)cccn3c2SC(F)(F)F)c(OC)c1` [Example 279], the dissociation constant (Kd) in experiment [1] is 0.01 to 0.1 µM. The same compound showed an AC50 at p53 Y220C of over 3 µM.

Consider `CNC(=O)c1ccc(NCC#Cc2nc3c(N[C@H]4C[C@H]5COC[C@H](N5)[C@H]4F)cccn3c2SC(F)(F)F)c(OC)c1` [Example 281], for which the AC50 on p53 Y220C lay within 1.5 to 3 µM.
